Test results reported in paper PMC9814232, “Structural insights into the potency and selectivity of covalent pan-FGFR inhibitors” (Communications Chemistry, 2022).

Amino acid sequences for entries named in this document (tags omitted). Residues count along the entry.
UniProt P22607, 450-758: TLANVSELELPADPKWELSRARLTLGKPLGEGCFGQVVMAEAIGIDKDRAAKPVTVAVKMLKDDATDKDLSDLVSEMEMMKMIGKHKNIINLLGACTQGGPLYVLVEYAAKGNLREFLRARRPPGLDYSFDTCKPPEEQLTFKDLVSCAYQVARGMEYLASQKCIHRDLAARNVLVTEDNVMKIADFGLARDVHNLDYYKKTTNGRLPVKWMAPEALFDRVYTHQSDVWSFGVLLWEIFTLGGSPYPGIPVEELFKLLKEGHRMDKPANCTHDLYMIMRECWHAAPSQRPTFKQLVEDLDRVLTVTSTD
UniProt P22607, 450-758 V555M: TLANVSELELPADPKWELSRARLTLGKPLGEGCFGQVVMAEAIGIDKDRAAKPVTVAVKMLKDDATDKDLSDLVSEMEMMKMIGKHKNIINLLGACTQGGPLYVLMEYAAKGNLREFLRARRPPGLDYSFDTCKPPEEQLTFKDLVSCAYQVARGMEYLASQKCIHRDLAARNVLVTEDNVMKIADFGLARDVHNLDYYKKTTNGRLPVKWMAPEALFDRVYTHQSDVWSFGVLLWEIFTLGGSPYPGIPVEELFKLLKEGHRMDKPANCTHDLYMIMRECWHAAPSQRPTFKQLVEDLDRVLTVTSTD

Assays:
SRC = target: T1, SRC (Gallus gallus, UniProt P00523); assay: MALDI-TOF MS covalent adduct formation, SRC; format: binding, chicken; details: protein:inhibitor 1:2, overnight, 4 °C
T1 construct: chicken SRC (residues 251−533); 6×His (N, cleaved yes); made in house; host or cells: E. coli BL21 (DE3), co-expressed with YOPH
Experimental: FGFRs, SRC and HCK were prepared as previously described[31]–[33]. Briefly, the kinase domain of human FGFR1 (residues 456−765), FGFR2 (residues 453−770), FGFR3 (residues 450−758), FGFR4 (residues 445−753), chicken SRC (residues 251−533) and human HCK (residues 247−526) were respectively cloned into a modified pET28a expression vector with a N-terminal 6×His tag followed by a PreScission or TEV cleavage site. The mutants, FGFR1(V561M), FGFR2(V564F), FGFR3(V555M), FGFR4(V550L), FGFR4(C477A), SRC(C277A), were introduced by PCR using primers with the desired mutations. The primers were synthesized by Tsingke Biotechnolog Co., Ltd., and the sequences were listed in Supplementary Table 2. Then plasmid was transfected into E. coli BL21 (DE3) cells and co-expressed with YOPH to get the non-phosphorylated proteins. Cells were grown in LB at 37 °C and induced for 16 h with 0.5 mM IPTG at 18 °C. Cells were harvested by centrifugation for next purification. All steps of purification were performed at 4 °C. Proteins were first purified by Ni-NTA affinity chromatography, and then 6×His tag was removed by PreScission or TEV protease. SRC(C277A) was purified as His-tagged fusion proteins. Anion exchange chromatography (Mono Q) and size exclusion chromatography (SEC) were exploited for further purification. […]

FGFR3 = target: T2, FGFR3 (Homo sapiens, UniProt P22607); assay: ADP-Glo kinase inhibition assay, FGFR3; format: biochemical; details: kinase activity, 10 μM ATP, n = 3
T2 construct: FGFR3 (residues 450−758); 6×His (N, cleaved yes); made in house; host or cells: E. coli BL21 (DE3), co-expressed with YOPH

FGFR3(V555M) = target: T3, FGFR3(V555M) (Homo sapiens, UniProt P22607, V555M); assay: ADP-Glo kinase inhibition assay, FGFR3(V555M) gatekeeper mutant; format: biochemical; details: kinase activity, 10 μM ATP, n = 3
T3 construct: FGFR3 (residues 450−758); 6×His (N, cleaved yes); made in house; host or cells: E. coli BL21 (DE3), co-expressed with YOPH

C=CC(=O)N1CCN(CCCn2c(=O)c(-c3c(Cl)c(OC)cc(OC)c3Cl)cc3cnc(NC)nc32)CC1 [PRN1371, 8-(3-(4-Acryloylpiperazin-1-yl)propyl)-6-(2,6-dichloro-3,5-dimethoxyphenyl)-2-(methylamino)pyrido[2,3-d]pyrimidin-7(8H)-one]
mass shift of SRC protein (covalent adduct) (SRC): no mass shift was observed | IC50 (FGFR3): 1.8 nM | IC50 (FGFR3(V555M)): 583 nM
